One experiment has as its target T1, MCL-1 (Homo sapiens, UniProt Q07820).
T1 construct: purchased BPS Bioscience
Nature of the experiment: MCL-1 inhibition by TR-FRET assay (cell-free). Type of experiment: binding. The conditions noted are these: read-out: IC50 against MCL-1. As for the experimental part:
(§1) The effectiveness of inhibiting the MCL-1 and BCL-2 proteins was evaluated using specific assay kits (BPS Bioscience, Sandiego, CA) and corresponding ligands for each protein. The test compounds were incubated with the proteins for 120 or 180 min, and the experiment was repeated three times using Sabutoclax as a positive control. The concentrations of the test compounds Comp-1 and Comp-6 and positive control ranged from 0.01, 0.1, 1.0, 10 μM. Measurements were taken of Tb-donor emission at 620 nm followed by dye-acceptor emission at 665 nm, and data analysis was performed using the TR-FRET ratio (665 nm emission/620 nm emission). The FRET value from the positive control was considered as full activity (100%) and the FRET value from the negative control was considered as zero percent activity. Then, % inhibitory activity of test compounds was calculated by the equation: % Activity=FRETS−FRETneg/FRETP−FRETneg×100%
(§2) Where FRETS, FRETneg, and FRETp are sample FRET, negative control FRET, and positive control FRET, respectively. The IC50 values of the test compounds were calculated by nonlinear regression analysis on GraphPad Prism 5 (GraphPad Inc., USA).
Background: In TR-FRET formats the signal depends on donor and acceptor labels being close together.

Chains of the proteins cited; added tags and fusions are not shown.
UniProt Q07820, whole entry: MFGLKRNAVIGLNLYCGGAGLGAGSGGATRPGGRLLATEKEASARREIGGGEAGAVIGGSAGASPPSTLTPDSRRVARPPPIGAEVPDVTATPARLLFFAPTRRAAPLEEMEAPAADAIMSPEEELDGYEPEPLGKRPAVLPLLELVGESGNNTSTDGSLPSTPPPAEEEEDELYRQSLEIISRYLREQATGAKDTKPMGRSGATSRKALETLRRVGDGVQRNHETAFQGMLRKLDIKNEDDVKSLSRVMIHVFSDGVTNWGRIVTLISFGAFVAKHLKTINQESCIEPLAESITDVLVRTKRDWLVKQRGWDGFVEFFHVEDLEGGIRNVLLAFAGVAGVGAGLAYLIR
UniProt P10415, whole entry: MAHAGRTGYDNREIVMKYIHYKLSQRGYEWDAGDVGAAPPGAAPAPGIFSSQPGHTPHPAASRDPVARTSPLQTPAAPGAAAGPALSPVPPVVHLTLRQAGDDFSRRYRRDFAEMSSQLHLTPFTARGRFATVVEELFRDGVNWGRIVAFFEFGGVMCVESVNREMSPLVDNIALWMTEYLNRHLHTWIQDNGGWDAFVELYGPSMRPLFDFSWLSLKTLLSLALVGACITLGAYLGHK

In the next experiment the target is T2, BCL-2 (Homo sapiens, UniProt P10415).
T2 construct: purchased BPS Bioscience
Briefly: BCL-2 inhibition by TR-FRET assay (cell-free). The settings on record: read-out: IC50 against BCL-2. The format is binding. As to the method: as §1, §2

As usually defined, the IC50 is the midpoint of a concentration-inhibition curve. Turning to `Cc1cc2c(C(=O)NC[C@H](C)c3ccccc3)c(O)c(O)cc2c(O)c1-c1c(C)cc2c(C(=O)NC[C@H](C)c3ccccc3)c(O)c(O)cc2c1O` [Sabutoclax, reference compound], the values for the IC50 on MCL-1 and on BCL-2 were 251 nM and 278 nM, respectively.

The values above are taken from patent publication US12258321B1 (University of Jeddah, priority 2024, dated 2025).
